This assay addresses Adrenergic receptor alpha (Homo sapiens) (UniProt P35348+P08913+P18825+P25100+P35368+P18089). In words: Blocking activity towards Alpha adrenergic receptor of rabbit aortic tissue preparation was determined. The settings on record: Oryctolagus cuniculus; target entry is the homologue from another species.

The chains behind the UniProt entries cited, without tags or fusion partners. Where a name states a change or a piece, a line headed by the entry shows the natural chain unless it says otherwise.
UniProt P35348: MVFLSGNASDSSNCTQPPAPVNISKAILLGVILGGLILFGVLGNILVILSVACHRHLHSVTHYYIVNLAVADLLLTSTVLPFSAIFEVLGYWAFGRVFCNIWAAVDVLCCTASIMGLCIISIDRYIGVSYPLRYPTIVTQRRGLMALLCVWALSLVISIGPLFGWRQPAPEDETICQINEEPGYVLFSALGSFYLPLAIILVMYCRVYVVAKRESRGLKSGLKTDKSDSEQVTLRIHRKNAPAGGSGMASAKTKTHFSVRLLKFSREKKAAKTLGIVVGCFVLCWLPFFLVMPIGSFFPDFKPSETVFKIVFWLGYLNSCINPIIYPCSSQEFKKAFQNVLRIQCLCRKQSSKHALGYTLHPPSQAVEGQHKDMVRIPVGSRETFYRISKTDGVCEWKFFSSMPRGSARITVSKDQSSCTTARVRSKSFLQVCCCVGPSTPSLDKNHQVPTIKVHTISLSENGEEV
UniProt P08913: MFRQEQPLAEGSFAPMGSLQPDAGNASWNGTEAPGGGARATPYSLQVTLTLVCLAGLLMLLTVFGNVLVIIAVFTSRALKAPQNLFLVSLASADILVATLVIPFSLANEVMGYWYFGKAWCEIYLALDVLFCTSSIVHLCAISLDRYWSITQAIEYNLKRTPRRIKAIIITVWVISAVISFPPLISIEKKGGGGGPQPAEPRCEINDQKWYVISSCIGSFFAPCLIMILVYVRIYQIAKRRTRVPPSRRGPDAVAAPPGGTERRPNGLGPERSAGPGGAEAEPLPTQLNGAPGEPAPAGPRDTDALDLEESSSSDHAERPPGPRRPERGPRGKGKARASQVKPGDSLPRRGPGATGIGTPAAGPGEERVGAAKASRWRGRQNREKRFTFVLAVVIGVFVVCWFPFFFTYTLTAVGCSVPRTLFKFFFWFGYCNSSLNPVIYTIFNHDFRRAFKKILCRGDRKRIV
UniProt P18825: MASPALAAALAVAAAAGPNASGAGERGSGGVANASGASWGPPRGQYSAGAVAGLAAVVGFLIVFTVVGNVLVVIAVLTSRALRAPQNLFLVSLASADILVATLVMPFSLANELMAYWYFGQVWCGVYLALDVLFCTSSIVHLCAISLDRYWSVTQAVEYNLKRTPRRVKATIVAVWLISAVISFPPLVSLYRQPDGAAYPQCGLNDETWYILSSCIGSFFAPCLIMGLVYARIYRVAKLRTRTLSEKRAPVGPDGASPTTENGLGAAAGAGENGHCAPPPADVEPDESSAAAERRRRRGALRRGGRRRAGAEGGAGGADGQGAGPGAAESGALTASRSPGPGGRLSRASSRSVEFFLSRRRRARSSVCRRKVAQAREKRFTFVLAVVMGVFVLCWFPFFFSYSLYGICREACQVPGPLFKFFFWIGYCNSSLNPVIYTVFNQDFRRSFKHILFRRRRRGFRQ
UniProt P25100: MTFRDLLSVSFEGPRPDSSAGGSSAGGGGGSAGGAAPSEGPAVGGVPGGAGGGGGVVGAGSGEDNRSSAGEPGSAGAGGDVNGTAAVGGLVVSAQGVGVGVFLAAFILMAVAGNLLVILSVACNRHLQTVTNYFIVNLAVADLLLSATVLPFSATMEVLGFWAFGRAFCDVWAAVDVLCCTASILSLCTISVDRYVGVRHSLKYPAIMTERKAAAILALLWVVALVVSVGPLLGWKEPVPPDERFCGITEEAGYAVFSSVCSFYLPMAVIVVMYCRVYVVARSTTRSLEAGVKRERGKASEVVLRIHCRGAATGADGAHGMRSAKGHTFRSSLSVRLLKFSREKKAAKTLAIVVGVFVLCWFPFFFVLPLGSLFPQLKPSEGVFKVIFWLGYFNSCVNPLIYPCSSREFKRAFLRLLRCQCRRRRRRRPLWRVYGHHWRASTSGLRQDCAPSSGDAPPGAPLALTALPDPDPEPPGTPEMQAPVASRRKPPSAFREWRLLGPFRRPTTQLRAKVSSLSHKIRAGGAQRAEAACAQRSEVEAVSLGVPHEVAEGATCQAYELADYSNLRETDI
UniProt P35368: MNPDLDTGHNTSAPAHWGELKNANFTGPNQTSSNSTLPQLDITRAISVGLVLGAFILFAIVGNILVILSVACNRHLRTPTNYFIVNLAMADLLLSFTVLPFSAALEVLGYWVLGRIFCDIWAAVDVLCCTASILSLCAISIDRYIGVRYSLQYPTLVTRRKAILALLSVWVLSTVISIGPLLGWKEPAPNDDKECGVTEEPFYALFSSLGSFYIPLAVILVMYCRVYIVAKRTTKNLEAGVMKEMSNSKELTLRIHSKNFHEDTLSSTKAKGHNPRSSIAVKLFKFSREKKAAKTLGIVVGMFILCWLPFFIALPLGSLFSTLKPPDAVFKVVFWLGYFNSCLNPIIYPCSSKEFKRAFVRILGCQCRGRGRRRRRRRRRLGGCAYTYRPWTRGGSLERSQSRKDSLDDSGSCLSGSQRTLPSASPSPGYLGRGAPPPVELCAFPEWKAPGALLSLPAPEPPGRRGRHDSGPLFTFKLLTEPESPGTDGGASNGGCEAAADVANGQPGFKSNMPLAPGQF
UniProt P18089: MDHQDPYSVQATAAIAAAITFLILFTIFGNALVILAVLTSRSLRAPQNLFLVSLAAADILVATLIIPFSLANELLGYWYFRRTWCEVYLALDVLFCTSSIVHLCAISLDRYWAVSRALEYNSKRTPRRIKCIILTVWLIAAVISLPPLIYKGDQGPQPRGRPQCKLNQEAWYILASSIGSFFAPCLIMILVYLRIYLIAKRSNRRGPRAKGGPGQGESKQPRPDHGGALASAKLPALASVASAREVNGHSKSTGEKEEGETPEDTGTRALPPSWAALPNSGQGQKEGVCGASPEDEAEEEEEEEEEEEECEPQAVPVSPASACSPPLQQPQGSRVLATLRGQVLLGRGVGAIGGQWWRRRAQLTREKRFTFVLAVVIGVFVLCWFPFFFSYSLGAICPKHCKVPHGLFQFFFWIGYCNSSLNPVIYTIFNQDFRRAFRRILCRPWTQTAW

Structures are written as SMILES.

`C[C@@H]1CN=C(Cc2ccccc2)N1` returned a -Log KB of 4.77.
`C[C@H]1CN=C(Cc2ccccc2)N1` registered a -Log KB of 4.85.

(Values after ChEMBL document CHEMBL1121613.)
